Reference: ChEMBL document CHEMBL1140924, “Biomedical application of orexin/hypocretin receptor ligands in neuroscience” (J Med Chem, 2009)

Protein sequences, listed by entry. Tags and fused reporters are not part of them.
UniProt O43613, whole entry: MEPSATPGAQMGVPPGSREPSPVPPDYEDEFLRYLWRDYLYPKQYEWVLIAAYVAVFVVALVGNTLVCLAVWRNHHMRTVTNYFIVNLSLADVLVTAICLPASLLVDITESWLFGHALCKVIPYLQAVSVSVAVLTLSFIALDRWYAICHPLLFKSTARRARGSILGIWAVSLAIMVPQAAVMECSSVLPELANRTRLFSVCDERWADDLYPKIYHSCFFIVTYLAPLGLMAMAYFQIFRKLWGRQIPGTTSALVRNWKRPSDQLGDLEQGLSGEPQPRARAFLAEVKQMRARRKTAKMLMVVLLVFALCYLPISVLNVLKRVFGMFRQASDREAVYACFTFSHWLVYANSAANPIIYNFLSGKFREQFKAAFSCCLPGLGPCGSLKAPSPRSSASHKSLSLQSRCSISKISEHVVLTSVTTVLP

Target: Orexin/Hypocretin receptor type 1 (Homo sapiens, UniProt O43613)
Assay: Inhibition of OX1 receptor

`CNC(=O)[C@@H](c1ccccc1)N1CCc2cc(OC)c(OC)cc2[C@@H]1CCc1ccc(C(F)(F)F)cc1` [ALMOREXANT] was tested, and the IC50 was 13 nM.
